# Apparent affinities of Ab-14 variants for a coronavirus HR2 peptide

Values reported by Li et al. 2023, doi:10.1038/s41467-023-39022-2 (FLAb copy).

The target is the same throughout: PDVDLGDISGINAS, from the HR2 region of SARS-CoV-2 spike.

Ab-14 is the parent antibody, in scFv form: VH, then a 15-residue (Gly4Ser)3 linker, then VL. The light chain is unchanged in all variants.
VH: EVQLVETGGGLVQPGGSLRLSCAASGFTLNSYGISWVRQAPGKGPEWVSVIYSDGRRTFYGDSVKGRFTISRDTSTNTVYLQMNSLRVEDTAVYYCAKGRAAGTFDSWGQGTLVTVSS
VL: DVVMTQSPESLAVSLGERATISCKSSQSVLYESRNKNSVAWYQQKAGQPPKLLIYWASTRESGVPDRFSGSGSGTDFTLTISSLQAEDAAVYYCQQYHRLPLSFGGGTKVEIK

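The starting antibody came from a phage panning campaign against this peptide. This is the validation round: designs drawn from the data on random variants, tested in the same kind of assay. Group labels follow the data file (Ctrl: baseline library sampled from a position-specific scoring matrix, with some repeated check sequences; Rand: our label for a block that the file lists under HC and that is probably the random mutants of the ten best first-round binders; En: ensemble of fine-tuned language models; GP: Gaussian process model; GPLM: also part of the Gaussian process libraries; HC: hill climbing; Gen: genetic algorithm; Gibbs: Gibbs sampling; a sequence that several methods proposed may carry one label only). The assay is AlphaSeq: two haploid yeast populations carry antibody and antigen on their surface. Mating (16 h, 30 °C) was followed by selection of diploids and sequencing of their barcodes. The ratio of observed to expected reads was calibrated, replicate by replicate, on BCL2-family standards whose Kd was known from biolayer interferometry. The assay was run in six technical replicates.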

The parent's heavy chain CDRs are GFTLNSYGIS, VIYSDGRRTFYGDSVK, GRAAGTFDS; each variant's own CDRs replace them letter for letter.
Values are log10 of the apparent Kd in nM; lower means stronger binding.
A mean of the replicates is given; it leaves out those without a signal.
Where no diploid with the target was found in any replicate, the entry reads "not detected": below detection, most likely a poor binder, though not proof of it.
The authors' rule: three or more of the six replicates give a measured affinity, fewer mean a poor binder.
The parent sequence was in this pool as ten entries: three were never detected, three once, and four in most replicates, with averages from 0.34 to 2.37.
As a blank, each scFv also met three strains without target: over all heavy chain designs, 1% of these pairings were detected, typically at 2.08 and seldom below 0.84. The control count says in how many pairings with the empty strains this scFv gave a signal.
A sequence measured in both rounds can read differently, since the two assays cover different ranges.

| CDR-H1 | CDR-H2 | CDR-H3 | group | mean, log10 nM | replicates with signal | signal with controls |
|---|---|---|---|---|---|---|
| GFTLESYGIS | VIYSDGKRTFYSDSVK | GRAGGTFDS | GP_HC | 2.06 | 6/6 | 0/18 |
| GFDLNEYGVS | VIYADGVRSAYTSNVK | GVGNVDIML | En_Gibbs | not detected | 0/6 | 1/18 |
| GFSLQKYGIS | VIYSDGRRTFYGDSVK | GRLAGTFDS | Ctrl | 2.17 | 4/6 | 0/18 |
| GCTLNSYGIS | VIKSDGRRTFYSDSVK | GRAGGTFDS | Rand | not detected | 0/6 | 0/18 |
| GFNLDEYGIS | VIYADGMRTFYADSVK | GSHAGTFDT | En_HC | -0.10 | 6/6 | 0/18 |
| GFDLNEYGIS | VIYADGVRTQYADSVK | GNNAGTFDV | En_Gen | 0.12 | 6/6 | 0/18 |
| GADIQEYGIS | VIYADGIRTAYAQNVK | GEYDSQFDI | En_Gibbs | not detected | 0/6 | 0/18 |
| GYDLNEYGIS | VIYADGRRAAYIDDVK | GNVNDHVAV | En_Gibbs | not detected | 0/6 | 0/18 |
| GFTLNSYGIS | VIYSDGRRTFYSDSVK | GKAGGTFDV | GP_HC | 1.62 | 5/6 | 0/18 |
| GEDLDSYGIS | VIYADGLRTAYSDNFK | GNLGGQFDM | En_Gibbs | 2.89 | 1/6 | 0/18 |
| GFDLNEYGIS | VIYADGVRTAYADSVK | GEVAGTFDT | En_Gen | -0.53 | 6/6 | 0/18 |
| GFDLNEYGIS | VIYADGQRTFYIDSVK | GTNAGTFDS | En_HC | -0.30 | 6/6 | 0/18 |
| GFDLNSYGIS | VIYSDGRRTFYADQVK | GRAAGTFDS | GP_Gen | 0.53 | 6/6 | 1/18 |
| GFSLNSYGIS | VIYSDGRRTFYKDSVK | GSTAGTFDS | GP_Gibbs | 0.64 | 6/6 | 0/18 |
| GFDLNEYGIS | VIYADGRRTSYKDSVK | GEEAGTFDV | En_HC | 0.95 | 5/6 | 0/18 |
| GFDLDEYGIS | VIYADGRRTFYADSVK | GEAAGTFTI | En_HC | 0.43 | 6/6 | 0/18 |
| GFTLNEYGIS | VIYSDGRRTFYGDSVK | GRIAGTFDT | GPLM_Gen | -0.18 | 4/6 | 0/18 |
| GFDFQEYGIS | VIYADGQRANYSDSVK | GNIGAIFSD | En_Gibbs | not detected | 0/6 | 0/18 |
| GFDFQEYGIS | VIYADGLRTNAADNVK | GNIGATFDD | En_Gibbs | 1.34 | 1/6 | 0/18 |
| GFELNSYGIS | VIYSDGKRTFYGDSVK | GRTAGTFDS | GPLM_Gibbs | 0.36 | 6/6 | 0/18 |
| GFTLNSYGIS | VIYSDGRRTFYGDQVK | GRARGTFFS | Ctrl | not detected | 0/6 | 1/18 |
| EFSLNSYGIS | VIYSDGRRTFYSDSVK | GRTAGTFDS | GP_Gibbs | 0.46 | 6/6 | 0/18 |
| GFQLDEYGIS | VIYADGLRVYYAQNVK | GYNSFDIND | En_Gibbs | not detected | 0/6 | 0/18 |
| GFTINSYGIS | VIYSDGRRTFYNDSVK | GSAFGLFDS | Ctrl | 2.42 | 1/6 | 1/18 |
| GFDLEEYGIS | VIYADGRRTFYSDSVK | GEHAGTFDT | En_HC | -0.37 | 6/6 | 0/18 |
| GTTLNDYGIS | VIYSDGRRTFYGDSVK | GRAAGTFDS | Ctrl | 1.83 | 3/6 | 0/18 |
| GFTLNDYGIS | VIYSDGRRTQYIDSVK | GNAAGTFDS | GPLM_HC | 1.10 | 6/6 | 0/18 |
| GFTLNSYGIS | VIYSDGQRTFYGDSVK | NRAAGTMDS | Ctrl | not detected | 0/6 | 1/18 |
| GFTLQSYGIS | VIYSDGRRTFIGDSVK | VRLKTTFDS | Ctrl | not detected | 0/6 | 0/18 |
| GFDLNSYGIS | VIYSDGRRTFYSDSVK | GRAAGIFDS | GPLM_HC | 0.58 | 6/6 | 2/18 |
| GETLNSYGIS | VIYSDGRRTFYGDSVK | GDAAGDSDS | Ctrl | not detected | 0/6 | 0/18 |
| GFTLNDYGIS | VIYSDGRRTFYIDTVK | GKAAGTFDS | GP_HC | 1.66 | 3/6 | 0/18 |
| GFDLEEYGIS | VIYADGMRTAYSDSVK | GNTAGTFDV | En_Gen | -0.77 | 6/6 | 0/18 |
| GFTLNSYGIS | VIYSDGRRTFYGHSVK | RRAAGTFDS | Ctrl | not detected | 0/6 | 0/18 |
| GFDLNEYGIS | VIYADGRRTAYADDVK | GNTAGTFDI | En_Gen | 2.12 | 5/6 | 0/18 |
| GFTLNSYGIS | VIYSDGRRTFYSDSVK | GRVSGTFDS | GPLM_HC | 2.12 | 6/6 | 1/18 |
| GFSLNSYGIS | VIYSDGRRTFYTDSVK | GMLAGTFDS | GP_HC | -0.05 | 6/6 | 0/18 |
| GFDLNEYGIS | VIYADGMRTAYADDVK | GQNAGTFDM | En_Gen | 0.96 | 1/6 | 0/18 |
| GFKLNSYGIS | VIYSDGRRTFYKDSVK | GRAAKTFDS | Ctrl | not detected | 0/6 | 0/18 |
| GFDLDEYGIS | VIYADGSRVAILESVK | GKIAGTLDT | En_Gibbs | -0.14 | 6/6 | 0/18 |
| GFTLNEYGIS | VIYSDGRRTFYGDSVK | GRNAGTFDE | GP_HC | -0.20 | 6/6 | 0/18 |
| GFDINEYGIS | VIYADGRRTFYTDSVK | GENAGTFDV | En_HC | -0.49 | 6/6 | 0/18 |
| GFTLDQYRIS | VIYSDGRRTFYSDSVK | GRAAGDFDS | Rand | not detected | 0/6 | 0/18 |
| GFTLNSFGIS | VIYADGRRTFYGDSVK | GRLAGTFSS | Ctrl | 1.62 | 6/6 | 1/18 |
| GFTLNEYGIS | VIYSDGRRTFYGDSVK | GGAAGTFDL | GPLM_HC | 0.86 | 6/6 | 0/18 |
| GFTLNSYGIS | VIYSDGRRTFYSDSVK | GEAAGTFDN | GPLM_Gen | 1.32 | 5/6 | 0/18 |
| GCSLNEYGIS | VIYSDGRRTFYTDSVK | GRFAGTFDS | GP_HC | 1.44 | 1/6 | 0/18 |
| GETLESYGIS | VIYSDGRRTFYVDSNK | GRNAGQFDS | Ctrl | not detected | 0/6 | 0/18 |
| GFQIEEYGIS | VIYADGDRKNYDAKVK | GQIAGTFDM | En_Gibbs | 0.21 | 6/6 | 0/18 |
| GFTLNSYGIS | VIYSDGRRTFYGDSVK | GRNPGTFDS | Ctrl | 2.79 | 2/6 | 1/18 |
| GFDLNEYGIS | VIYADGKRTYYADDVK | GNQAGTFDV | En_Gen | -0.42 | 6/6 | 0/18 |
| GFTLNSYGIS | VIYSDGRRTFYSDSVK | GRAKGTFDS | Rand | 3.36 | 1/6 | 0/18 |
| GFELNSYGIS | VIYSDGKRTFYGDSVK | GRTAGTFDT | GP_Gen | 0.95 | 3/6 | 0/18 |
| GFTLESYGIS | VIYADGRRTFYGDSVK | GRAAGTFES | GPLM_Gen | 0.18 | 6/6 | 0/18 |
| GFTLDKYGIS | VIYSDGRRTFYGDSVK | GRTAGTFDS | GP_HC | 0.31 | 6/6 | 1/18 |
| GFTLNDYGIS | VIYSDGRRTAYGDSVK | GRAAGTFDS | GPLM_HC | -0.07 | 6/6 | 0/18 |
| GFGLNDYGIS | VIYSDGQRTFYIDSVK | GRAAGMFDS | Ctrl | 1.43 | 2/6 | 0/18 |
| GFDLNEYGIS | VIYADGSRTFYADSVK | GEAAGTFDV | En_HC | -0.34 | 6/6 | 0/18 |
| GFSLNEYGIS | VIYSDGRRTFYGDSVK | GRVAGTFDS | GPLM_Gen | -0.27 | 6/6 | 0/18 |
| GFTLNSYGIS | VIYADGRRNFYGDSVK | GRAAGTSDS | Ctrl | not detected | 0/6 | 0/18 |
| GFNFDEYGIS | VIYADGKRKAYSDSVK | GLSSGTMEV | En_Gibbs | -0.18 | 6/6 | 0/18 |
| GFDLDEYGIS | VIYADGMRTAYADNVK | GENAGTFDI | En_Gen | 0.05 | 6/6 | 0/18 |
| GFDLDEYGIS | VIYADGRRTAYSDSVK | GNVAGTFDT | En_Gen | -0.44 | 6/6 | 0/18 |
| GFDLNEYGIS | VIYADGRRTFYADSVK | GEAAGTFLM | En_HC | 0.51 | 6/6 | 0/18 |
| GFTLNNYGIS | VIYSDGRRTFYADSVK | GENAGTFDW | Ctrl | 1.31 | 6/6 | 0/18 |
| KFQLNSYGIS | VIYSDGRRTFYGDSVK | GRAAGTFDS | Ctrl | not detected | 0/6 | 0/18 |
| GFTLNSYGIS | VIYSDGKRTFYGDSVK | GQAAGTFDF | GP_Gibbs | 1.04 | 1/6 | 1/18 |
| GFQLNEYGIS | VIYSDGRRTFYGDSVK | GRTAGTFDG | GP_Gen | 0.20 | 6/6 | 0/18 |
| GFNLNEYGIS | VIYADGRRTFYADSVK | GEVAGTFDM | En_HC | -0.37 | 6/6 | 0/18 |

A selection of 8 entries from above:

CDR-H1,CDR-H2,CDR-H3,group,"mean, log10 nM",replicates with signal,signal with controls
GFKLNSYGIS,VIYSDGRRTFYKDSVK,GRAAKTFDS,Ctrl,not detected,0/6,0/18
GFSLNSYGIS,VIYSDGRRTFYKDSVK,GSTAGTFDS,GP_Gibbs,0.64,6/6,0/18
GFDLEEYGIS,VIYADGRRTFYSDSVK,GEHAGTFDT,En_HC,-0.37,6/6,0/18
GFSLNEYGIS,VIYSDGRRTFYGDSVK,GRVAGTFDS,GPLM_Gen,-0.27,6/6,0/18
GFDLNSYGIS,VIYSDGRRTFYSDSVK,GRAAGIFDS,GPLM_HC,0.58,6/6,2/18
GCTLNSYGIS,VIKSDGRRTFYSDSVK,GRAGGTFDS,Rand,not detected,0/6,0/18
GFTLNSYGIS,VIYSDGRRTFYSDSVK,GRAKGTFDS,Rand,3.36,1/6,0/18
GYDLNEYGIS,VIYADGRRAAYIDDVK,GNVNDHVAV,En_Gibbs,not detected,0/6,0/18